Assay results from PubChem BioAssay AID588627 (Johns Hopkins Ion Channel Center, 2011).
Only a part is listed here, and it is no random draw. Calls of active or inactive are those of the source.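 How the source made its calls: active means calcium response B-score plate-corrected fluorescence ratio at least 3 library SD, with starting fluorescence B-score inside 5 SD; inactive means the rest.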

Amino acid sequences for entries named in this document (tags omitted).
UniProt Q96LB2, whole entry: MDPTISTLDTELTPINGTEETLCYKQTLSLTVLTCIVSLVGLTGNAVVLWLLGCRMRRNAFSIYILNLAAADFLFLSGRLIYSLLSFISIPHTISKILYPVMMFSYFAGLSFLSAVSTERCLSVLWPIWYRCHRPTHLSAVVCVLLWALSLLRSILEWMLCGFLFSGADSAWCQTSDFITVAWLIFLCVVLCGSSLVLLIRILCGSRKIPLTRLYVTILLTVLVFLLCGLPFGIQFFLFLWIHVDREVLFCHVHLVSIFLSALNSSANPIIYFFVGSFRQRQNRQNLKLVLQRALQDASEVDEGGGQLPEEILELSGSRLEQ

What follows are molecules tested against Mas-related G-protein coupled receptor member X1 (Homo sapiens) (UniProt Q96LB2) (assay: MrgX1 activation via calcium signaling – HEK293 cells, Fluo-4 calcium flux, primary screen (AID 588627)). Conditions: Fluo-4 calcium fluorescence, agonist mode, at 10 µM.
How it was run: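 Assay system: stable human MrgX1 HEK293 cell line. Quantity: 15,000 cells per well. Schedule: cells plated overnight, dye loaded 0.5 h 37 °C, 0.5 h room temperature. Detection: Fluo-4 NW calcium-flux fluorescence, kinetic read. Read-out basis: peak-minus-minimum fluorescence over baseline, converted to B scores. Control set: positive and negative control wells on each plate.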
In the case of NC(=O)c1cc([N+](=O)[O-])cc([N+](=O)[O-])c1N, the outcome is reported as “inactive”.
Cc1ccc(N/C(=N/P(=O)(N2CCOCC2)N2CCOCC2)N2CCOCC2)cc1 was tested, and the outcome was “inactive”.
For COc1ccccc1OP(C)(=O)Nc1ccc(Br)cc1 (stereo not drawn), the outcome was “inactive”.
In the case of CN(C(=O)Cc1ccc(Cl)c(Cl)c1)[C@H]1CCCC[C@H]1N1CCCC1, the outcome is reported as “inactive”.
With Cc1ccc(OP(=O)(Nc2nccs2)Oc2ccc(C)cc2)cc1 the outcome was “inactive”.
For COc1ccc(OP(C)(=O)Nc2ccccn2)cc1 (stereo not drawn), the outcome was “inactive”.
With COc1ccccc1OP(=O)(Nc1ccc(C)cn1)Oc1ccccc1OC the outcome was “inactive”.
For Clc1ccc(Cl)c(NC2=NCC(CBr)S2)c1 (stereo not drawn), the outcome was “inactive”.
With CN(C)CCOC(=O)C(O)(c1ccccc1)C1CCCC1 (stereo not drawn) the outcome was “inactive”.
With CN1CCCC(OC(=O)C(c2ccccc2)c2ccccc2)C1 (stereo not drawn) the outcome was “inactive”.
With CC(C)CC(=O)NC(Sc1ccc(Cl)cc1)C(Cl)(Cl)Cl (stereo not drawn) the outcome was “inactive”.
With O=[N+]([O-])c1cc([N+](=O)[O-])c(Nc2ccccn2)c([N+](=O)[O-])c1 the outcome was “inactive”.
With Cc1c(NP(C)(=O)Oc2ccc(C(C)C)cc2)c(=O)n(-c2ccccc2)n1C (stereo not drawn) the outcome was “inactive”.
With Nc1cc(N)c2nonc2c1[N+](=O)[O-] the outcome was “inactive”.
O=C(NC(Sc1ccncn1)C(Cl)(Cl)Cl)c1ccccc1 (stereo not drawn) was tested, and the outcome was “inactive”.
For Oc1ccccc1CNc1ccccn1, the outcome was “inactive”.
COc1ccccc1OP(C)(=O)Nc1ccc(C)cc1C (stereo not drawn) was tested, and the outcome was “inactive”.
CP(=O)(Nc1ccccn1)Oc1ccccc1 (stereo not drawn) was tested, and the outcome was “inactive”.
For CCc1ccc(OP(C)(=O)O)cc1, the outcome was “inactive”.
O=C(O)c1ccccc1[As](=O)(O)O was tested, and the outcome was “inactive”.
In the case of CC(=O)Nc1ccc([As](=O)(O)O)cc1, the outcome is reported as “inactive”.
For Cc1cc(C)cc(OP(C)(=O)Nc2cccc(C(F)(F)F)c2)c1 (stereo not drawn), the outcome was “inactive”.
In the case of O=P(Nc1nc2ccc(Cl)cc2s1)(c1ccccc1)c1ccccc1, the outcome is reported as “inactive”.
In the case of Cc1ccc(NP(=O)(Oc2ccccc2F)Oc2ccccc2F)nc1, the outcome is reported as “inactive”.
CN(C(=O)Cc1ccc(Cl)c(Cl)c1)[C@H]1CCCC[C@@H]1N1CCCC1 was tested, and the outcome was “inactive”.
In the case of COc1ccccc1OP(C)(=O)Nc1ccc(C)c(C)c1 (stereo not drawn), the outcome is reported as “inactive”.
In the case of CCOP(=O)(Nc1ccccc1)OCC, the outcome is reported as “inactive”.
In the case of Cc1cc(SC(NC(=O)c2ccc(F)cc2)C(Cl)(Cl)Cl)ncn1 (stereo not drawn), the outcome is reported as “inactive”.
With COc1ccc(OP(C)(=O)Nc2ccccc2Br)cc1 (stereo not drawn) the outcome was “inactive”.
With Cc1nc2ccc3ccccc3c2o1.O=[N+]([O-])c1cc([N+](=O)[O-])c(O)c([N+](=O)[O-])c1 the outcome was “inactive”.
For O=[N+]([O-])c1cc([N+](=O)[O-])c(CCN2CCOCC2)c([N+](=O)[O-])c1, the outcome was “inactive”.
CCN(N=Nc1nonc1N)c1nonc1N was tested, and the outcome was “inactive”.
With CP(=O)(OCCOc1ccccc1)OCCOc1ccccc1 the outcome was “inactive”.
